Test results: PMC9290681 (British Journal of Pharmacology, 2020)

The chains behind the UniProt entries cited, without tags or fusion partners.
UniProt P35372, whole entry: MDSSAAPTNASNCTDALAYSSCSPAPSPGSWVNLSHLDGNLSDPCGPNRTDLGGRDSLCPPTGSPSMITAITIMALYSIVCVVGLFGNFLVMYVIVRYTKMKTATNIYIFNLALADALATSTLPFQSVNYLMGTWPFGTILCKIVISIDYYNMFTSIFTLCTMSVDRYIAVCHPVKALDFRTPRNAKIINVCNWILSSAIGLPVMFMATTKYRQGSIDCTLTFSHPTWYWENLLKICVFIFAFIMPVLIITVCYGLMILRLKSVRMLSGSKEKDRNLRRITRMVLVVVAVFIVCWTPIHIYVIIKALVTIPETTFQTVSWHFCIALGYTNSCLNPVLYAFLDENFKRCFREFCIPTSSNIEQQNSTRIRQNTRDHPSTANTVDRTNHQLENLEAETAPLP

Molecular target: μ opioid receptor co-transfected with TRPM3α1 (Homo sapiens, UniProt P35372)
Type: cell-based
Conditions: DAMGO 1 μM, ±80 mV

[D‐Ala2, N‐Me‐Phe4, Gly5‐ol]‐Enkephalin acetate salt [DAMGO]
inhibition of clotrimazole-induced currents (Clt 10 μM): only partially inhibited | inhibition of CIM0216-induced currents: complete and rapidly reversible inhibition
